# Values quoted from earlier work, collected in patent US12205808B2 (priority 2019, dated 2025).
substance,measurement,value
AM-1220,Concentration in postmortem plasma samples,0.14 µg/mL
